Experimental findings from ChEMBL document CHEMBL2086370 (J Med Chem, 2012) are described below.

Each structure is given as a SMILES string.

In assay [1] the target is T1, Nociceptin receptor (Homo sapiens, UniProt P41146). Description: Displacement of [3H]Nociceptin from human recombinant NOP receptor expressed in CHO cells by scintillation counter.
In assay [2] the target is Mu-type opioid receptor (Homo sapiens, UniProt P35372). Format: cell membranes. Particulars: cho.
For assay [3], the target named is Kappa-type opioid receptor (Homo sapiens, UniProt P41145). Particulars: cho.
Assay [4] has as its target Delta-type opioid receptor (Homo sapiens, UniProt P41143). Particulars: cho.
Assay [5] addresses T1, Nociceptin receptor. As to the kind of experiment: Agonist activity at human cloned NOP receptor expressed in CHO cell membranes after 30 mins by [35S]GTPgammaS binding assay.

For the molecule `CCn1c(=O)n([C@@H]2CCN(CC3CCCCCCC3)C[C@H]2CO)c2ccccc21`, the inhibition constant (Ki) in assay [1] was 0.403 nM; in assay [2] it was more than 400 nM; in assay [3] it was more than 400 nM; in assay [4] it was more than 400 nM.
`COC(=O)CN1CN(c2ccccc2)C2(CCN(Cc3cccc4ccccc34)CC2)C1=O`: the Ki was 12.9 nM in assay [1], more than 400 nM in assay [2], more than 400 nM in assay [3] and more than 400 nM in assay [4]. Further, in assay [5], the EC50 was found to be 121 nM.
Regarding `CNC(=O)Cn1c(=O)n(C2CCN([C@@H]3Cc4cccc5cccc3c45)CC2)c2ccccc21`, the inhibition constant (Ki) in assay [1] is 0.336 nM; in assay [2], more than 400 nM; in assay [3], more than 400 nM; in assay [4], more than 400 nM. The molecule also displayed a 50% effective concentration (EC50) in assay [5] of 1.6 nM.
